In patent US6255347A, “Methods and compositions comprising R-ibuprofen” (priority 1997, dated 2001):

Tests used:
PKC = molecular target: T1, PKC (Rattus norvegicus, UniProt P05696); assay: Protein kinase C activity assay (histone phosphorylation, partially purified rat brain PKC); type: biochemical; conditions: summary statement
T1 construct: Partially purified PKCα from rat brain; purchased Promega (Madison, Wis.); host or cells: rat brain (tissue enzyme, partially purified)
Protocol: (-)-R-ibuprofen and (+)-S-ibuprofen (optical purity >99%) were obtained from Sepracor Inc. (Marlborough, Mass.). The following were obtained from the Sigma Chemical Co. (St. […] Anti-PKCα antibody (affinity purified) and its C-terminal region peptide was obtained from Life Technologies (Gaithersburg, Md.). […] All other chemicals were of the highest available purity and were obtained from standard commercial sources. The assay for PKC activity was carried out essentially as described by Boyle et al.(1991) by quantifying the phosphorylation of histone in the presence of phoshatidylserine and PMA, with or without ibuprofen. […] Following 2 min initial incubation at 30° C., kinase reactions were initiated by the addition of ^32 P-γ-ATP and enzyme and continued at 30° C. for 2 min. Control incubations contained all assay components except enzyme and ibuprofen. […] All samples were carried out in duplicate.

[1] = in vivo; cited from earlier work

| SMILES | direct inhibition of PKC-mediated phosphorylation (PKC) | terminal half-life [1] |
| --- | --- | --- |
| CC(C)Cc1ccc(C(C)C(=O)O)cc1 (racemic) [RS-ibuprofen] | ≈ 60% | – |
| CC(C)Cc1ccc([C@@H](C)C(=O)O)cc1 [R-ibuprofen] | ≈ 60% | – |
| CC(C)Cc1ccc([C@H](C)C(=O)O)cc1 [S-ibuprofen] | ≈ 60% | – |
| CC[C@]1(O)C[C@H]2CN(CCc3c([nH]c4ccccc34)[C@@](C(=O)OC)(c3cc4c(cc3OC)N(C=O)[C@H]3[C@@](O)(C(=O)OC)[C@H](OC(C)=O)[C@]5(CC)C=CCN6CC[C@]43[C@@H]65)C2)C1 [Vincristine] | – | about 24 hours |
